Measured values reported in patent US20080051419A1, “AMINE DERIVATIVES USEFUL AS ANTICANCER AGENTS” (PFIZER INC., priority 2006, published 2008).
Where two headings read alike, the source gives them in different places.

Sequences of proteins named here, by UniProt entry; tags and fusion partners are left off. Residues count along the entry.
UniProt P31749, 118-480 S473D limits assumed: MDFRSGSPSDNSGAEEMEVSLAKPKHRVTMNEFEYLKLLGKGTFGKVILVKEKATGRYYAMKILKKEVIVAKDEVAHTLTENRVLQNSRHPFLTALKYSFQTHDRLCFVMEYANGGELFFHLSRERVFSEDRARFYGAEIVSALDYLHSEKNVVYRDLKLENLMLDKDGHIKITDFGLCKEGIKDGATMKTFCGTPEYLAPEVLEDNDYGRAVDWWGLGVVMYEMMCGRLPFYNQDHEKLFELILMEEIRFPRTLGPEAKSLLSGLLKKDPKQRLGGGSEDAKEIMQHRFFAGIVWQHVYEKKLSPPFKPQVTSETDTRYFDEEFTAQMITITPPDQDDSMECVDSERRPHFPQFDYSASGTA

Assays:
[1] = target: Akt1 (Homo sapiens, UniProt P31749, S473D); test: Akt1 kinase assay, fluorescence polarization (IMAP)
[2] = target: PKA, catalytic subunit, recombinant (Homo sapiens, UniProt P17612); test: PKA IMAP Kinase Assay

IC50 ([1]; read-out: Avg Akt kinase, μM (50% inhibition), average Akt kinase activity (IC50))	IC50 ([1]; read-out: Akt Kinase Activity, Table 6, selectivity study)	Selectivity Ratio (PKA/Akt) ([2]; PKA IC50 divided by Akt IC50)	IC50 ([2]; read-out: PKA Kinase Activity, Table 6, selectivity study)	Compound
0.00303 µM				Cc1c[nH]c2ncnc(N3CC[C@](N)(CNC(=O)c4ccc(F)cc4)C3)c12
	0.145 µM	0.56	81 nM	Cc1c[nH]c2ncnc(N3CCC(N)(CNc4ccccc4)CC3)c12
